Laboratory results from US20030119719A1, “Use of endothelin conjugates in therapy, new endothelin conjugates, agents that contain the latter, and process for their production” (priority 1996, published 2003).

Tests used:
arteriosclerotic plaque = assay: In vivo and in vitro concentration in WHHL rabbits (gamma camera imaging, autoradiography of the aorta); conditions: 5 hours after administration, 2 mCi via an ear vein
Method: In Vivo and In Vitro Concentration of the ^99mTc-Complex of […] in WHHL Rabbits 2 mCi (1 ml) of the […]Tc-complex that is produced according to 5a) is administered to an anesthetized WHHL rabbit (Rompun/Ketavet 1:2) via an ear vein. WHHL rabbits have a high LDL level in the blood because of a deficient or defective LDL receptor and therefore create spontaneously arteriosclerotic vascular alterations. During the test period of 5 hours after the administration, static images of various exposure times and of various positions were produced with a gamma camera ([…]). 5 hours after the administration, the rabbit was sacrificed, and both an autoradiography of the aorta and a Sudan III coloring were carried out.

common carotid artery = assay: Local application via administration catheter in the denuded common carotid artery, dynamic scintigraphy and autoradiography
Text: b) Local Application of the Tc-99m Complex of NH2-Asp-Gly-Gly-Cys-Gly-Cys-Phe-(D-Trp)-Leu-Asp-Ile-Ile-Trp-OH as well as Tc-99m-pertechnetate in the Common Carotid Artery of White New Zealand Rabbits
In anesthetized white New Zealand rabbits (3.5 kg), the right common carotid artery was opened up. A 2 F balloon catheter (from the Baxter Company) was inserted cranially through a cut, and a vascular area approximately 5 cm long was denuded twice with 0.9% saline after the catheter was inflated. Then, an administration catheter (coronary perfusion/infusion catheter, dispatch 3.0, Baxter Company) was fed to the above-denuded area. […] Then, the catheter was removed, and the blood flow after closure of the common carotid artery dextra was restored using a suture. Dynamic scintigrams were prepared over a period of 1 hour with the aid of a commercial gamma camera. Then, the animals were sacrificed, both carotids were removed, and an autoradiography was prepared.

“^99mTc Complex of Asp-Gly-Gly-Cys-Gly-Cys-Phe-(D-Trp)-Leu-Asp-Ile-Ile-Trp” was tested, and the “accumulation in arteriosclerotic lesions (autoradiography)” value (arteriosclerotic plaque) was 3930 cpm/mm^2, the “accumulation in the macroscopically unaltered aorta (autoradiography)” value (arteriosclerotic plaque) was 380 cpm/mm^2 and the “course of the locally administered activity at the administration site after blood flow is restored” value (common carotid artery; examination period of 1 hour, dynamic scintigrams, right common carotid artery) was “decreased only insignificantly; also recorded: remains in place; also recorded: decreased only marginally”. For the same substance, the “share of the injected dose transported locally to the denuded artery” value (common carotid artery; local administration of 7.4 MBq in 0.9 ml via catheter, denuded right common carotid artery) was “about 5 % of the injected dose”.

Entries after “also recorded” stand apart in the source; their conditions may differ.
